Source: PubChem BioAssay AID588334 (Broad Institute, 2011)
Only a part is listed here, and it is no random draw. Activity calls are given as the source filed them.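 Rule for the calls: active = mean activation of at least 80% with every replicate also reaching 80%; inconclusive = mean reaches 80% but some replicate falls short; inactive = the rest.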

experiment: activators of MITF-driven TRPM1 promoter reporter, primary screen, cell-based, SK-MEL-5, luciferase, single point (AID 588334); details: SK-MEL-5 TRPM1-promoter luciferase, 24 h; at 12.5 µM; active compounds read high; % of positive control, neutral wells = 0;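 note: 0% = neutral control wells and 100% = parthenolide positive control wells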

Compound | activation
CCOP(=O)(Nc1ccc(C)cn1)OCC | inactive: -9.73%
CC(C)/C=N\N=C(\N)N[N+](=O)[O-] | inactive: -4.77%
CN(C(=O)Cc1ccc(Cl)c(Cl)c1)[C@@H]1CCCC[C@H]1N1CCCC1 | inactive: 7.17%
CC1(CBr)Cn2c(nc3ccccc3c2=O)S1 (stereo not drawn) | inactive: -1.77%
COc1ccccc1CNC(=O)COC(=O)C(O)(c1ccccc1)c1ccccc1 | inactive: 7.6%
O=C(COc1ccccc1)OC1CN2CCC1CC2 (stereo not drawn) | inactive: -6.09%
O=C(Nc1ccncc1[N+](=O)[O-])c1ccc([N+](=O)[O-])cc1[N+](=O)[O-] | inactive: -20%
COP1(=S)c2c(C)nn(CCC#N)c2N=C(c2ccc(F)cc2)N1C (stereo not drawn) | inactive: 0.723%
CCC(C)N(CC(C)C)C(=S)SC(NC(C)=O)C(Cl)(Cl)Cl (stereo not drawn) | inactive: -24.3%
CCCCOc1ccc(C(=O)NCC2(N3CCCCC3)CCCCC2)cc1OC | inactive: 13.2%
Cc1cc(SC(NC(=O)c2ccccc2)C(Cl)(Cl)Cl)nc(C(C)C)n1 (stereo not drawn) | inactive: -6.81%
CCOC(=O)Nc1ccc([As](=O)(O)O)c(O)c1 | inactive: -1.47%
CC1CCNP(=O)(N(CCCl)CCCl)O1 (stereo not drawn) | inactive: -7.21%
O=P(Nc1ccccn1)(c1cccc2ccccc12)c1cccc2ccccc12 | inactive: 7%
Cc1cc(SC(NC=O)C(Cl)(Cl)Cl)ncn1 (stereo not drawn) | inactive: -1.3%
O=[N+]([O-])c1ccc(Nc2ccc(Oc3ccc([N+](=O)[O-])cc3[N+](=O)[O-])cc2)c([N+](=O)[O-])c1 | inactive: 6.75%
CCOC(=O)Nc1cccc([As](=O)(O)O)c1 | inactive: 2.01%
Cc1ccc(OP(=O)(Nc2ccc([N+](=O)[O-])cn2)Oc2ccc(C)cc2)cc1 | inactive: -13%
Cc1ccc2nc3c(c(C)c2c1)CC(C(Cl)Cl)S3 (stereo not drawn) | inactive: 8.17%

Compound | activation
C[As](=O)(O)c1cccc(C(=O)O)c1 | inactive: 5.65%
O=[As](O)(c1ccc(O)cc1)c1ccccc1O | inactive: 12.7%
O=[N+]([O-])c1ccc(-c2cc([N+](=O)[O-])c(O)c([N+](=O)[O-])c2)cc1 | inactive: -1.52%
COc1cc(C(=O)NCC2(N3CCOCC3)CCCCC2)ccc1OCC(C)C | inactive: 10.7%
CC(C)NC(=O)NP(=O)(Oc1ccccc1)Oc1ccccc1 | inactive: 6.99%
CCN(CC)C(=S)SC(NC=O)C(Cl)(Cl)Cl (stereo not drawn) | inactive: -37%
O=C(OC1CN2CCC1CC2)c1cccc2[nH]cnc12 (stereo not drawn) | inactive: -10.9%
O=[N+]([O-])c1cc([N+](=O)[O-])c(-c2ccn[nH]2)s1 | inactive: -72.2%
COC(=O)C1(C)COP(=O)(N2CCCCCC2)OC1 (stereo not drawn) | inactive: -2.22%
CC(C)c1ccc(OP(=O)(Nc2ccccn2)Oc2ccccc2F)cc1 (stereo not drawn) | inactive: -0.856%
O=P1(N(CCCl)CCCl)Nc2ccccc2N1 | inactive: -0.27%
O=P1(N(CCCl)CCCl)OCCCN1CCCl (stereo not drawn) | inactive: 0.005%
COc1ccc2nc(NP(=O)(c3ccccc3)c3ccccc3)sc2c1 | inactive: -0.201%
COc1cc(I)ccc1[As](=O)(O)O | inactive: 7.7%
Cc1c2c(nc3ccccc13)SC(C(Cl)Cl)C2 (stereo not drawn) | inactive: 8.27%
O=C(OC1CN2CCC1CC2)C12CC3CC(CC(C3)C1)C2 (stereo not drawn) | inactive: 9.14%
Cc1cc(=O)[nH]c(N[N+](=O)[O-])n1 | inactive: 15%
O=[N+]([O-])c1cc(Oc2ccc([N+](=O)[O-])cc2C(F)(F)F)cc([N+](=O)[O-])c1 | inactive: -16.9%
COc1ccc(N/C(=N/P(=O)(N2CCOCC2)N2CCOCC2)N2CCOCC2)cc1 | inactive: 1.62%
